From patent publication US11179373B2, “Derivatives of 1-[(cyclopentyl or 2-pyrrolidinyl)carbonylaminomethyl]-4-(l,3-thiazol-5-yl) benzene which are useful for the treatment of proliferative, autoimmune or inflammatory diseases” (University of Dundee, priority 2015, dated 2021)

Legend:
[1] = target: BRD2/BD1 (Homo sapiens, UniProt P25440); conditions: ITC, 30° C.
Procedure: (§1) Samples were monitored by SDS-polyacrylamide gel electrophoresis to verify purity.
(§2) Experiments were conducted as PROTAC into protein titrations, except in the case of MZ3 where protein was titrated into PROTAC. BET protein experiments were conducted in a buffer containing 20 mM HEPES with 100 mM NaCl at pH 7.5 and a temperature of 30° C.

[2] = target: BRD2/BD2 (Homo sapiens, UniProt P25440); conditions: ITC, 30° C.
Procedure: as §1, §2

[3] = target: BRD3/BD1 (Homo sapiens, UniProt Q15059); conditions: ITC, 30° C.
Procedure: as §1, §2

[4] = target: BRD3/BD2 (Homo sapiens, UniProt Q15059); conditions: ITC, 30° C.
Procedure: as §1, §2

[5] = target: BRD4/BD1 (Homo sapiens, UniProt O60885); conditions: ITC, 30° C.
Procedure: as §1, §2

[6] = target: BRD4/BD2 (Homo sapiens, UniProt O60885); conditions: ITC, 30° C.
Procedure: as §1, §2

[7] = system: T1, individual first and second bromodomains of BRD2, BRD3 and BRD4; test: ITC of MZ1, summary over all six bromodomains; assay type: binding; conditions: range over first and second bromodomains of BRD2, BRD3 and BRD4
T1 construct: rows headed: ΔH; other: ITC, range over first and second bromodomains of BRD2, BRD3 and BRD4; fused on or other part: His6 tag
Procedure: as §2

[8] = target: T2, BRD4 (Homo sapiens, UniProt O60885); test: BET protein abundance in HeLa cells by Western blot; assay type: cell-based
T2 construct: endogenous in cells; host or cells: HeLa
Procedure: 4 h after treatment the media was aspirated and replaced by fresh media without treatment. Cells were harvested at given time points.

[9] = target: T3, BRD2 (Homo sapiens, UniProt P25440); test: as above; assay type: cell-based; conditions: 1 μM, 24 h
T3 construct: endogenous in cells; host or cells: HeLa

[10] = target: T4, BRD3 (Homo sapiens, UniProt Q15059); test: as above; assay type: cell-based; conditions: 1 μM, 24 h
T4 construct: endogenous in cells; host or cells: HeLa

[11] = target: GFP-BRD4 (Homo sapiens, UniProt O60885); conditions: U2OS cells expressing GFP-BRD4, 5 μM
[12] = system: BET proteins (BRD2, BRD3, BRD4); test: BET protein removal in HeLa cells by Western blot (all BET proteins); conditions: various concentrations
[13] = target: BET bromodomains; conditions: background statement on known BET inhibitors; cited from earlier work

## Cc1ncsc1-c1ccc(CNC(=O)[C@@H]2C[C@@H](O)CN2C(=O)[C@@H](NC(=O)COCCOCCOCCNC(=O)C[C@@H]2N=C(c3ccc(Cl)cc3)c3c(sc(C)c3C)-n3c(C)nnc32)C(C)(C)C)cc1 [MZ1, (2S,4R)-1-((S)-2-(tert-butyl)-17-((S)-4-(4-chlorophenyl)-2,3,9-trimethyl-6H-thieno[3,2-f][1,2,4]triazolo[4,3-a][1,4]diazepin-6-yl)-4,16-dioxo-6,9,12-trioxa-3,15-diazaheptadecanoyl)-4-hydroxy-N-(4-(4-methylthiazol-5-yl)benzyl)pyrrolidine-2-carboxamide]
[1]
  ΔH: -10.0 ± 0.1 kcal/mol
  ΔS: −4.29 ± 0.38 cal/mol-K
[2]
  ΔG: -9.22 ± 0.05 kcal/mol
  ΔH: -6.08 ± 0.04 kcal/mol
  ΔS: 10.3 ± 0.2 cal/mol-K
[3]
  ΔG: -9.62 ± 0.02 kcal/mol
  ΔH: -10.0 ± 0.06 kcal/mol
  ΔS: −4.40 ± 0.20 cal/mol-K
[4]
  ΔG: -9.63 ± 0.06 kcal/mol
  ΔH: -8.32 ± 0.05 kcal/mol
  ΔS: −4.29 ± 0.26 cal/mol-K
[5]
  ΔG: -8.91 ± 0.02 kcal/mol
  ΔH: -8.59 ± 0.03 kcal/mol
  ΔS: 1.04 ± 0.13 cal/mol-K
[6]
  ΔG: -9.61 ± 0.04 kcal/mol
  ΔH: -6.86 ± 0.03 kcal/mol
  ΔS: 9.04 ± 0.16 cal/mol-K
[7]
  ΔH: −6.1 to −10.0 kcal/mol
[8]; 1 μM for 4 h, then compound removed from the media
  detectable recovery of intracellular BRD4 after washout: 20 h
[8]; 1 μM, 24 h
  removal of BRD4 (Western blot): complete removal
[8]; 1 μM, no exchange of media, after 48 h
  BRD4 protein level in the absence of the wash step: no protein could be detected
[9]
  removal of BRD2 (Western blot): not complete
[10]
  removal of BRD3 (Western blot): not complete
[11]
  complete depletion of the GFP-BRD4 fluorescence signal observed after: 3 h
[12]
  concentration dependent BET removal activity: most active compound

## Cc1ncsc1-c1ccc(CNC(=O)[C@@H]2C[C@H](O)CN2C(=O)[C@@H](NC(=O)COCCOCCOCCNC(=O)C[C@@H]2N=C(c3ccc(Cl)cc3)c3c(sc(C)c3C)-n3c(C)nnc32)C(C)(C)C)cc1 [cisMZ1, (2S,4S)-1-((S)-2-(tert-butyl)-17-((S)-4-(4-chlorophenyl)-2,3,9-trimethyl-6H-thieno[3,2-f][1,2,4]triazolo[4,3-a][1,4]diazepin-6-yl)-4,16-dioxo-6,9,12-trioxa-3,15-diazaheptadecanoyl)-4-hydroxy-N-(4-(4-methylthiazol-5-yl)benzyl)pyrrolidine-2-carboxamide]
[11]
  change in the GFP-BRD4 fluorescence signal over the course of the experiment: no change

## CCNC(=O)C[C@@H]1N=C(c2ccc(Cl)cc2)c2cc(OC)ccc2-n2c(C)nnc21 [I-BET762]
[13]
  Kd: ~100 nM
